{"source": "patent US20200268765A1", "about": "“METHOD OF TREATING MEDULLOBLASTOMA WITH AN EZH2 INHIBITOR” (Epizyme, Inc., priority 2015, published 2020)", "key": {"medulloblastoma cells": {"tested_on": "medulloblastoma cells", "test": "Medulloblastoma cell growth (total cells per milliliter over time)", "type": "cell-based", "details": "0.5 μM, 2 μM and 6 μM", "from_the_text": "FIG. 26A is a graph showing the concentration of medulloblastoma cells (total cells per milliliter) as a function of time (days) following treatment with GSK-126, a small molecule inhibitor of EZH2.\nFIG. 26B is a graph showing the concentration of medulloblastoma cells (total cells per milliliter) as a function of time (days) following treatment with UNC 1999, a small molecule inhibitor of EZH2.\nFIG. 26C is a graph showing the concentration of medulloblastoma cells (total cells per milliliter) as a function of time (days) following treatment with tazemetostat (EPZ 6438), a small molecule inhibitor of EZH2.\nFIG. 26D is a graph showing the concentration of medulloblastoma cells (total cells per milliliter) as a function of time (days) following treatment with GSK-126, UNC 1999, and tazemetostat (EPZ 6438).\nMedulloblastoma cells are treated with either a negative control (DMSO) or varying concentrations of tazemetostat (EPZ 6438): 0.5 μM, 2 μM and 6 μM. The total cells per milliliter of culture were counted each day for 10 days."}, "[1]": {"tested_on": "primary medulloblastoma cells", "details": "BrdU for 4 hours after 4 days treatment; FIG. 28C", "protocol": "FIG. 28A is a schematic diagram depicting the process by which primary medulloblastoma cell growth is evaluated ex vivo.\nA slice culture of medulloblastoma was freshly isolated from a subject.\nA patient having medulloblastoma underwent surgery to remove a slice of tumor tissue for testing. The medulloblastoma slice was cultured ex vivo on tissue supporting inserts (FIG. 28A). […] Following the treatment period, the cells of the slice culture were treated with BrdU for 4 hours prior to disaggregation and sorting by flow cytometry."}, "[2]": {"tested_on": "SMARCB1-deleted G401 cells", "details": "G401 versus RD cells, re-plated on day 7; FIGS. 10C-10F"}}, "data": [{"smiles": "CCN(c1cc(-c2ccc(CN3CCOCC3)cc2)cc(C(=O)NCc2c(C)cc(C)[nH]c2=O)c1C)C1CCOCC1", "note": "[tazemetostat]", "values": [{"measurement": "concentration dependence of the effect on medulloblastoma cell growth", "setting": "medulloblastoma cells", "value": "concentration dependent"}, {"measurement": "number of cells synthesizing DNA (incorporation of BrdU)", "setting": "[1]", "value": "significantly decreased"}, {"measurement": "inhibition of proliferation", "setting": "[2]", "value": "Selective inhibition of proliferation"}]}]}
